H2O2-induced cytotoxicity data for 1 substance are collected here from patent US10058100B2, “Hydrogen sulfide releasing compounds and their use” (THE UNIVERSITY OF EXETER, priority 2011, dated 2018).

The subject of the data set is Human brain microvascular endothelial cells (HMEC).

For “morpholin-4-ium 4-methoxyphenyl(morpholino) phosphinodithioate [GYY4137, reference compound]”, the H2O2-induced cytotoxicity entry is reported as “inhibited”.
